Measurements taken from PubChem BioAssay AID1920062 (Sanford-Burnham Center for Chemical Genomics, 2024).
Only a part is listed here, and it is no random draw. The source made the active and inactive calls.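 The calls were made as follows: active = activation at 10 µM reaching about 35% in either raw or pattern-adjusted values (limit read from the data); inactive = the rest.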

Amino acid sequences for entries named in this document (tags omitted).
UniProt P20594, whole entry: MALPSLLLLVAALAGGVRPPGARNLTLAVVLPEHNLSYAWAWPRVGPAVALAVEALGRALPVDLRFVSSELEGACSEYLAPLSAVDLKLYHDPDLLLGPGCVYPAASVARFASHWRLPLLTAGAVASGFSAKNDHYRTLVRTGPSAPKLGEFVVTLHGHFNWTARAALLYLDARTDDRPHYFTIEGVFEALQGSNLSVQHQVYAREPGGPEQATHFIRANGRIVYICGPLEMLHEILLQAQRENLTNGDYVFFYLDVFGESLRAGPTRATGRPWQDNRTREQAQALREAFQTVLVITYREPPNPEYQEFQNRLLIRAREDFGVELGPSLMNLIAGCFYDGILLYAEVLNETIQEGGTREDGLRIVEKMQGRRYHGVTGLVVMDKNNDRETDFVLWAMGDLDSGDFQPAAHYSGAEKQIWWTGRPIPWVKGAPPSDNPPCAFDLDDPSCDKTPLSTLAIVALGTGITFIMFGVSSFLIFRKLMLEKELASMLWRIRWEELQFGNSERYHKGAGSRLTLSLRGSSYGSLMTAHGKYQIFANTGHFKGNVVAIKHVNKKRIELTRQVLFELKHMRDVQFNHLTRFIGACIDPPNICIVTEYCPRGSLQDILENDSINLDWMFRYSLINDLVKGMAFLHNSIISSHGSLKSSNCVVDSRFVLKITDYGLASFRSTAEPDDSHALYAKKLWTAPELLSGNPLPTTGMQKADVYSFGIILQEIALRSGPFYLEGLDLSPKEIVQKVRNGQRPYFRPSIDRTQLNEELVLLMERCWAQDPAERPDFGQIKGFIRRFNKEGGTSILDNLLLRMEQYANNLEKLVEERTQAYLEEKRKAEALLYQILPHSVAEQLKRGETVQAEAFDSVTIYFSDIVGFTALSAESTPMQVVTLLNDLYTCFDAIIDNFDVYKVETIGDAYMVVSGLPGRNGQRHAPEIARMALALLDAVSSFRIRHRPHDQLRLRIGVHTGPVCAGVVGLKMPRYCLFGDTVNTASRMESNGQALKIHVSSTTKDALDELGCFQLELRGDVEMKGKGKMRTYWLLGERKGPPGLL

Target: Atrial natriuretic peptide receptor 2 (Homo sapiens) (UniProt P20594)
Test: GC-B stimulated cGMP production enhancers – HEK293 GC-B cells, cGMP TR-FRET, EC30 CNP, primary screen (AID 1920062)
Conditions: at 10 µM, hits give high values, 0% at EC30 CNP, 100% saturating CNP

| SMILES | activation |
| --- | --- |
| O=C(OCCN1CCN(CCOCc2ccccc2)CC1)C(O)(c1ccccc1)c1ccccc1 | inactive: 3.59% |
| CCOC(=O)c1ccc(NP(C)(=O)Oc2ccc(F)cc2)cc1 (centres undefined) | inactive: 3.65% |
| COc1ccc(OP(C)(=O)Nc2ccc(SC(F)(F)F)cc2)cc1 (centres undefined) | inactive: -0.9% |
| CCN(CC)CCCNc1ccccc1[N+](=O)[O-].O=[N+]([O-])c1cc([N+](=O)[O-])c(O)c([N+](=O)[O-])c1 | inactive: -4.02% |
| CP(=O)(Nc1ccccc1)Oc1ccc(F)cc1 (centres undefined) | inactive: -1.48% |
| CCCCCOc1ccc(NP(C)(=O)Oc2ccc(Cl)cc2Cl)cc1 (centres undefined) | inactive: 0.64% |
| O=[N+]([O-])c1cc([N+](=O)[O-])c(OC2CCCCC2O)c([N+](=O)[O-])c1 (centres undefined) | inactive: -0.02% |
| Cc1c([N+](=O)[O-])cc([N+](=O)[O-])c(Br)c1[N+](=O)[O-] | inactive: 3.54% |
| CCN(CC)CCCOC(=O)C(O)(c1ccccc1)C1CCCCC1 (centres undefined) | inactive: -4.82% |
| CN(C)CCOC(=O)C(O)(c1ccccc1)C1CCCCC1 (centres undefined) | inactive: -0.11% |
| COc1ccc(NP(C)(=O)Oc2ccccc2OC)cc1 (centres undefined) | inactive: -0.07% |
| COc1ccc(OP(C)(=O)Nc2cccc(Br)c2)cc1 (centres undefined) | inactive: -10.1% |
| Cc1c(C(c2ccc3c(c2)OCO3)c2c(C)n(C)n(-c3ccccc3)c2=O)c(=O)n(-c2ccccc2)n1C.O=[N+]([O-])c1cc([N+](=O)[O-])c(O)c([N+](=O)[O-])c1 | inactive: 0.59% |
| O=[N+]([O-])c1ccc(OP2(=O)COCCO2)cc1 (centres undefined) | inactive: 4.65% |
| O=[N+]([O-])c1cc([N+](=O)[O-])c(NCC2CCS(=O)(=O)C2)c([N+](=O)[O-])c1 (centres undefined) | inactive: 2.07% |
| Cc1cc(-c2cccc3ccccc23)c(C)cn1.O=[N+]([O-])c1cc([N+](=O)[O-])c(O)c([N+](=O)[O-])c1 | inactive: -3.68% |
| CCOP(C)(=S)SCC(=O)NC(C)(CC)C(=O)O (centres undefined) | inactive: 3.74% |
| CCOP(=O)(CC)OCC | inactive: -7.87% |
| CP(=O)(Nc1ccc(SC(F)(F)F)cc1)Oc1ccc(F)cc1 (centres undefined) | inactive: -2.74% |
| Cc1ccccc1NP(C)(=O)Nc1ccccc1C | inactive: 0.88% |
| O=[N+]([O-])c1cc([N+](=O)[O-])c(C(F)(F)F)c([N+](=O)[O-])c1O | inactive: -2.54% |
| CP(=O)(Nc1ccc2c(c1)OCCO2)Oc1ccccc1 (centres undefined) | inactive: -0.33% |
| O=C(OCCCN1CCCC1)C(O)(c1ccccc1)C1CCCCC1 (centres undefined) | inactive: -5.3% |
| COc1ccccc1OP(C)(=O)Nc1c(C)n(C)n(-c2ccccc2)c1=O (centres undefined) | inactive: 1.63% |
| CCc1ccc(OP(C)(=O)Nc2cccnc2)cc1 (centres undefined) | inactive: -5.88% |

| SMILES | activation |
| --- | --- |
| CP(=O)(Oc1ccccc1)N1CCOC1=O (centres undefined) | inactive: -0.52% |
| COc1ccc(OP(C)(=O)Nc2ccc(Br)cc2)cc1 (centres undefined) | inactive: -2.98% |
| CN(C)C(=O)c1c([N+](=O)[O-])cc([N+](=O)[O-])cc1[N+](=O)[O-] | inactive: 1.98% |
| COc1ccccc1OP(C)(=O)Nc1ccccc1Br (centres undefined) | inactive: -0.98% |
| CC(C)(C)c1ccc(OP(C)(=O)O)cc1 | inactive: -0.52% |
| CP(=O)(Nc1ccc(Cl)cc1)Oc1ccc(F)cc1 (centres undefined) | inactive: -6.75% |
| CCOC(=O)c1ccc(NP(C)(=O)Oc2ccc(Cl)cc2)cc1 (centres undefined) | inactive: 1.08% |
| CP(=O)(OC12CC3CC(CC(C3)C1)C2)OC12CC3CC(CC(C3)C1)C2 | inactive: 1.96% |
| Nc1ccc2c(ccc3cccnc32)n1.O=[N+]([O-])c1cc([N+](=O)[O-])c(O)c([N+](=O)[O-])c1 | inactive: 0.92% |
| COc1ccccc1OP(C)(=O)Nc1ccc(C)c(C)c1 (centres undefined) | inactive: -10.1% |
| COc1ccc(OP(C)(=O)Nc2ccccc2Br)cc1 (centres undefined) | inactive: -5.51% |
| Cc1cc(C)cc(OP(C)(=O)Nc2cccc(C(F)(F)F)c2)c1 (centres undefined) | inactive: -4.29% |
| O=C1C(O)=C([N+](=O)[O-])C(=O)C(O)=C1[N+](=O)[O-] | inactive: -2.02% |
| CCCCCCCCCCCCCCCC1C[N+](C)(C)CCOP(C)(=O)O1 (centres undefined) | inactive: 9.11% |
| CP(=O)(Nc1ccc(Cl)cc1Cl)Oc1ccccc1 (centres undefined) | inactive: -9% |
| CP(=O)(OCCOc1ccccc1)OCCOc1ccccc1 | inactive: -1.94% |
| COc1ccc(OP(C)(=O)Nc2ccccn2)cc1 (centres undefined) | inactive: -0.23% |
| CN(C)CCOC(=O)C(O)(c1ccccc1)C1CCCC1 (centres undefined) | inactive: 3.19% |
| COc1ccccc1OP(C)(=O)Nc1ccc(Br)cc1 (centres undefined) | inactive: -5.58% |
| COc1ccccc1OP(C)(=O)Nc1ccc(C)cc1C (centres undefined) | inactive: -4.95% |
| CP(=O)(Nc1ccccn1)Oc1ccccc1 (centres undefined) | inactive: -1.27% |
| CCc1ccc(OP(C)(=O)O)cc1 | inactive: 10.5% |
| Cc1c(NP(C)(=O)Oc2ccc(C(C)C)cc2)c(=O)n(-c2ccccc2)n1C (centres undefined) | inactive: -2.65% |
| O=[N+]([O-])c1cc([N+](=O)[O-])c(Nc2ccccn2)c([N+](=O)[O-])c1 | inactive: 1.4% |
